Measured affinities in a library of Ab-14 light chain variants

Values reported by Li et al. 2023, doi:10.1038/s41467-023-39022-2 (FLAb copy).

The target is the same throughout: PDVDLGDISGINAS, from the HR2 region of SARS-CoV-2 spike.

The variants keep the heavy chain, the linker and the frameworks of Ab-14 (scFv order VH, three GGGGS repeats, VL).
VH: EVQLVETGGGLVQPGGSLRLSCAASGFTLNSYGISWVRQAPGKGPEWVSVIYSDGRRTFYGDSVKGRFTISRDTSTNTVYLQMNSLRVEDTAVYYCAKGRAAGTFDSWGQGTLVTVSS
VL: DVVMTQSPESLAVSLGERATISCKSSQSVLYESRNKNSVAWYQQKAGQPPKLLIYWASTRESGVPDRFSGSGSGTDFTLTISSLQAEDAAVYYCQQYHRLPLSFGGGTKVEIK

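The parent was found by panning a naive human phage display library on the peptide. These sequences belong to a second round, designed from the earlier measurements on random variants of the parent. Group labels follow the data file (Ctrl: baseline library sampled from a position-specific scoring matrix, with some repeated check sequences; Rand: our label for a block that the file lists under HC and that is probably the random mutants of the ten best first-round binders; GP: Gaussian process model; HC: hill climbing; Gen: genetic algorithm; Gibbs: Gibbs sampling; a sequence that several methods proposed may carry one label only). AlphaSeq pools MATa yeast showing the antibodies with MATalpha yeast showing the peptide. Pairs that bind mate more often; barcode pairs of the diploids are counted by sequencing. Each replicate has its own calibration line, from reference interactions of the BCL2 family. The assay was run in six technical replicates.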

Each variant is given by its three light chain CDRs, as the data file delimits them; those of the parent are KSSQSVLYESRNKNSVA, WASTRES, QQYHRLPLS.
Variants here have at most six changes.
Values are apparent Kd, the geometric mean of the replicates that gave a signal; lower means stronger binding.
"nd" means that the variant was in the library but no mating with the target was seen in any replicate; the authors take this as a sign of poor binding, and no number exists.

The variant KSSQSVLSESRNKNSVA, QASTRES, QQYHRLPLS [Ctrl] gave 5.6 nM (6 of 6 replicates; controls 3 of 18).
The variant KTSQSVLYESRNKNSVA, EASTRES, QQYHRLPLS [Ctrl] gave 9.5 nM (6 of 6 replicates; controls 0 of 18).
The variant KISQSHLYESRNWNAVA, EASTRPS, QQYHRLPLS [GP_Gibbs] gave 1.7 nM (6 of 6 replicates; controls 1 of 18).
The variant KFSQWVPYESRTKNSVA, NASTRES, QQYHRLPLS [GP_HC] gave 12 nM (6 of 6 replicates; controls 3 of 18).
The variant KLQQSEEYESRNKNSVA, NASTRLS, QQYHRLPLS [GP_Gen] gave 1.3 nM (6 of 6 replicates; controls 0 of 18).
The variant KSSQSVLYESMNKNSVA, KASTRES, QQYERLPLS [Ctrl] gave 6.0 nM (6 of 6 replicates; controls 0 of 18).
The variant KLRQSTLYESRNQNSVA, AASTRES, QQYHRLPLS [GP_HC] gave 1.3 nM (6 of 6 replicates; controls 0 of 18).
The variant KSSQSYLYESRNTNSVA, EASTRES, QQYHRLPLS [GP_HC] gave 30 nM (3 of 6 replicates; controls 0 of 18).
The variant KTSQSVLYESRRKNSVA, GASTRES, FQYHRLPLS [Ctrl] gave 160 nM (1 of 6 replicates; controls 0 of 18).
The variant KVSQSVLYESRNKNSVA, DASTRES, QQYHRLPLD [GP_HC] gave 3.3 nM (6 of 6 replicates; controls 1 of 18).
The variant KFSQSVAYESRMKNSVA, NASTRES, QQYHRLPLS [GP_HC] gave 770 pM (6 of 6 replicates; controls 0 of 18).
The variant KLSQSELYESRNKNSVA, GASQRES, QQYHRLPLS [GP_Gen] gave 1.2 nM (6 of 6 replicates; controls 0 of 18).
The variant KLSQSVLYESRNKNSVA, NASTRCM, QQYHRLPLS [GP_Gen] gave 770 pM (6 of 6 replicates; controls 2 of 18).
The variant KFSQSVLYESRQSNSVA, NASTRES, QQYHRLPLS [GP_HC] gave 800 pM (6 of 6 replicates; controls 1 of 18).
The variant KLSQSVLYEDRNKNSVA, NASTRFS, QQYHRLPLS [GP_Gen] gave 420 pM (6 of 6 replicates; controls 1 of 18).
The variant KSSQSVLYEGRNKNSVA, WASTREN, QQCHRLPLS [Ctrl] gave nd (0 of 6 replicates; controls 1 of 18).
The variant KWSTSVLYESRNKNSVA, WASTRES, QQYHRLPLS [Ctrl] gave 120 nM (5 of 6 replicates; controls 0 of 18).
The variant KSSISYLTESMNKNSVA, EASTRES, QQYHRLPLS [GP_HC] gave 2.1 nM (6 of 6 replicates; controls 0 of 18).
The variant KLRQSTLYHSYNKNSVA, WASTRES, QQYKRLPLS [Rand] gave 97 nM (2 of 6 replicates; controls 1 of 18).
The variant KASQSLLYESRNKNSVA, WASTRES, QQYHRLPLS [Ctrl] gave 13 nM (6 of 6 replicates; controls 0 of 18).
The variant KSSQSVLYEERYMNSVA, WASTRES, QQYHRLPLS [Ctrl] gave 8.9 nM (1 of 6 replicates; controls 0 of 18).
The variant KSSQSVLYESRNQNAVA, NASTRES, QQYHRLPLM [Ctrl] gave 3.7 nM (6 of 6 replicates; controls 0 of 18).
The variant KLSQSVMYESRNKNSVA, HASTRES, QQYHRLPLS [GP_Gen] gave 580 pM (6 of 6 replicates; controls 0 of 18).
The variant KVSQSWLYEQRNKNSVA, NASTRES, QQYHRLPLS [GP_Gen] gave 720 pM (6 of 6 replicates; controls 2 of 18).
The variant KSSQSELYESRNKNSVA, WASTRES, QQYHRLPLS [Ctrl] gave 70 nM (4 of 6 replicates; controls 0 of 18).
The variant HSSQSVVYESRNKNSVA, WASTRES, QQYHRLPLS [Ctrl] gave 180 nM (4 of 6 replicates; controls 0 of 18).
The variant KYSQSVLYMSRNKNSVA, WASMRES, QQYHRLPLS [Ctrl] gave 18 nM (6 of 6 replicates; controls 0 of 18).
The variant KLPQSVPYESRNKNSVA, NASTREQ, QQYHRLPLS [GP_Gen] gave 410 pM (6 of 6 replicates; controls 0 of 18).
The variant KLQQSVLYEERNKNSVA, NASTRLS, QQYHRLPLS [GP_Gen] gave 920 pM (6 of 6 replicates; controls 1 of 18).
The variant HSSCSVLYESRNKNSVA, NASTRES, QQYHRLPLS [Rand] gave 4.0 nM (6 of 6 replicates; controls 0 of 18).
The variant KLDQQTLYETRNKNSVA, WASTREE, QQYHRLPLS [GP_HC] gave 950 pM (6 of 6 replicates; controls 2 of 18).
The variant KSSQSVLYEHRNHNSVA, WASTRES, QQYHRSPLS [Ctrl] gave 120 nM (3 of 6 replicates; controls 0 of 18).
The variant ASSNSLLYESRNKNSVA, WASTRQS, QQYHRLPLS [Ctrl] gave 70 nM (4 of 6 replicates; controls 0 of 18).
The variant KESQSVLPEWGNKNSVA, DASTRES, QQYHRLPLS [GP_HC] gave 900 pM (6 of 6 replicates; controls 0 of 18).
The variant KSSQSYLYESGNKNSVA, QASTRES, QQYHRLPLS [GP_HC] gave 1.0 nM (6 of 6 replicates; controls 1 of 18).
The variant KLSQSVGYESRNKNSVA, NASTREM, QQYHRLPLS [GP_Gen] gave 610 pM (6 of 6 replicates; controls 3 of 18).
The variant KSSQSTLEESVNKNSVA, HASTRES, QQYHRLPLS [Ctrl] gave 2.3 nM (6 of 6 replicates; controls 1 of 18).
The variant KVSQSYLYESRNKNAVA, NASTRES, QQYHRLPLS [GP_Gen] gave 310 pM (6 of 6 replicates; controls 2 of 18).
The variant KMSNSVLHECRNKNSVA, EASTREA, QQYHRLPLS [Ctrl] gave 2.2 nM (6 of 6 replicates; controls 1 of 18).
The variant KLQQSVQYESRNKNAVA, QASQRES, QQYHRLPLS [GP_Gibbs] gave 660 pM (6 of 6 replicates; controls 1 of 18).
The variant KSSQSVLYESRNKNSVA, WASTREY, QQYHVLPLS [Ctrl] gave nd (0 of 6 replicates; controls 0 of 18).
The variant KFSQSVGYESRNKNSVA, NAQTRMS, QQYHRLPLS [GP_Gibbs] gave 2.1 nM (6 of 6 replicates; controls 2 of 18).
The variant KLSGSFLYESRNKNSVA, GASTRES, QQYHRLPLS [GP_Gen] gave 510 pM (6 of 6 replicates; controls 1 of 18).

The 5 strongest on average among those seen in every replicate, once more:

{"CDR-L1": "KVSQSYLYESRNKNAVA", "CDR-L2": "NASTRES", "CDR-L3": "QQYHRLPLS", "group": "GP_Gen", "apparent Kd": "310 pM", "replicates with signal": "6/6", "empty controls": "2/18"}
{"CDR-L1": "KLPQSVPYESRNKNSVA", "CDR-L2": "NASTREQ", "CDR-L3": "QQYHRLPLS", "group": "GP_Gen", "apparent Kd": "410 pM", "replicates with signal": "6/6", "empty controls": "0/18"}
{"CDR-L1": "KLSQSVLYEDRNKNSVA", "CDR-L2": "NASTRFS", "CDR-L3": "QQYHRLPLS", "group": "GP_Gen", "apparent Kd": "420 pM", "replicates with signal": "6/6", "empty controls": "1/18"}
{"CDR-L1": "KLSGSFLYESRNKNSVA", "CDR-L2": "GASTRES", "CDR-L3": "QQYHRLPLS", "group": "GP_Gen", "apparent Kd": "510 pM", "replicates with signal": "6/6", "empty controls": "1/18"}
{"CDR-L1": "KLSQSVMYESRNKNSVA", "CDR-L2": "HASTRES", "CDR-L3": "QQYHRLPLS", "group": "GP_Gen", "apparent Kd": "580 pM", "replicates with signal": "6/6", "empty controls": "0/18"}

Nonspecific signal, from three strains lacking the peptide, appeared in 4% of pairings of all light chain designs, centred on 430 nM (5% of these signals below 38 nM); values are not corrected for it. Also given: how often the same scFv was detected with the empty control strains.
The parent sequence was in this pool as ten entries: three were never detected, three once, and four in most replicates, with averages from 2.2 nM to 240 nM.
The authors averaged sequences with at least three values out of six and counted those with two or fewer as poor binders.
The range of this assay differs from that of the first round, and the authors advise against merging the two.